Target: Protein farnesyltransferase (Homo sapiens, UniProt P49354+P49356)
Assay: In vitro inhibitory activity to reduce the human farnesyltransferase catalyzed incorporation of [3H]FPP into recombinant Ras-CVIM
Assay type: functional
Method in brief: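 Human FPTase, [3H]FPP incorporated into recombinant Ras-CVIM. Enzyme at 1 nM, or 10 pM for some compounds.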

SMILES: N#Cc1ccc2cc1Oc1ccc3cccc(c3c1)N1CC[C@H](NCc3cncn3C2)C1=O
- IC50: 3.5 nM

— ChEMBL document CHEMBL1134760, “Evaluation of amino acid-based linkers in potent macrocyclic inhibitors of farnesyl-protein transferase” (Bioorg Med Chem Lett, 2001)
